IC50 data for one compound are collected here from patent publication US10259779B2 (WAYNE STATE UNIVERSITY, priority 2016, dated 2019).

The chains behind the UniProt entries cited, without tags or fusion partners. Where a name states a change or a piece, a line headed by the entry shows the natural chain unless it says otherwise.
UniProt O15379: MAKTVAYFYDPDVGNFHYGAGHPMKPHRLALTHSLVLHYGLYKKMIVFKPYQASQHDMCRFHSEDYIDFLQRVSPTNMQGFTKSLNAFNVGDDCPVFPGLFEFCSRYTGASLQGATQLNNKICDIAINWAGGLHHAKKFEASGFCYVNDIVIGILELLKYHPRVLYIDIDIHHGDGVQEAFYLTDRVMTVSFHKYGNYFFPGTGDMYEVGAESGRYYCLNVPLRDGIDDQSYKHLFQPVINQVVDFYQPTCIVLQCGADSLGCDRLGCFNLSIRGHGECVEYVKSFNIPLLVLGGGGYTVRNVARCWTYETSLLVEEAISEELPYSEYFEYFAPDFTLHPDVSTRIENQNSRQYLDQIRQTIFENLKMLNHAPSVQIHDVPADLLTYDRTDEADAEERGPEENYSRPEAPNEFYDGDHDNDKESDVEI
UniProt Q13547, whole entry: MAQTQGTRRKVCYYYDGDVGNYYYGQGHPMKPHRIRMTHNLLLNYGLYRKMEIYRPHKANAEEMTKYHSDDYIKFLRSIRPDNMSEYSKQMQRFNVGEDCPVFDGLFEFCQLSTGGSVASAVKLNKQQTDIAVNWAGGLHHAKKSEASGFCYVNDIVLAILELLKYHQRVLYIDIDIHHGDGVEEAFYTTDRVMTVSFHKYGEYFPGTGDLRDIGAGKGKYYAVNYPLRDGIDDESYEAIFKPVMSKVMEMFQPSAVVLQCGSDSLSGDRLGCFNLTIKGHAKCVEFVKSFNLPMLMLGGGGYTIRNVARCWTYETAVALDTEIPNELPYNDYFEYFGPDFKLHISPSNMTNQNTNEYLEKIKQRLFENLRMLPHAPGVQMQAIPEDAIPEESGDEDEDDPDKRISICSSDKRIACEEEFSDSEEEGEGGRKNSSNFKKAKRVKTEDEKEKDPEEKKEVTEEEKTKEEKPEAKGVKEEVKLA
UniProt Q92769, whole entry: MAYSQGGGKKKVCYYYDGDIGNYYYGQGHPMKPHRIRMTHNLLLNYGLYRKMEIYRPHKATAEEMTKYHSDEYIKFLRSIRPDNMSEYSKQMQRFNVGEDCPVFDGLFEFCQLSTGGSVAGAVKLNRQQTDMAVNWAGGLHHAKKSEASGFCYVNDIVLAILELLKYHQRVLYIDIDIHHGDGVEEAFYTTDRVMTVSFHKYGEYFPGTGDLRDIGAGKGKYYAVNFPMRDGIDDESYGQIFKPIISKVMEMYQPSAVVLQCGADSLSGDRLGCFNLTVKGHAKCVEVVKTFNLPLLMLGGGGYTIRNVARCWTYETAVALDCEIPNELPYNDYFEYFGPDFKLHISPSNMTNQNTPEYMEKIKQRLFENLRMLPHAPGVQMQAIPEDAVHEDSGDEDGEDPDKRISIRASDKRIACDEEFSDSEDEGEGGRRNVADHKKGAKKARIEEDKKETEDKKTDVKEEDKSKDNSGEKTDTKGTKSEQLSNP

For assay [1], the target named is HDAC3 (Homo sapiens, UniProt O15379). Description: ELISA-based HDAC activity assay, HDAC3. Background: ELISA stands for enzyme-linked immunosorbent assay.
Assay [2] addresses HDAC1 (Homo sapiens, UniProt Q13547). In words: ELISA-based HDAC activity assay, HDAC1.
Assay [3] concerns the target T1, HDAC6 (Homo sapiens, UniProt Q9UBN7).
T1 sequence (Q9UBN7 1-1215): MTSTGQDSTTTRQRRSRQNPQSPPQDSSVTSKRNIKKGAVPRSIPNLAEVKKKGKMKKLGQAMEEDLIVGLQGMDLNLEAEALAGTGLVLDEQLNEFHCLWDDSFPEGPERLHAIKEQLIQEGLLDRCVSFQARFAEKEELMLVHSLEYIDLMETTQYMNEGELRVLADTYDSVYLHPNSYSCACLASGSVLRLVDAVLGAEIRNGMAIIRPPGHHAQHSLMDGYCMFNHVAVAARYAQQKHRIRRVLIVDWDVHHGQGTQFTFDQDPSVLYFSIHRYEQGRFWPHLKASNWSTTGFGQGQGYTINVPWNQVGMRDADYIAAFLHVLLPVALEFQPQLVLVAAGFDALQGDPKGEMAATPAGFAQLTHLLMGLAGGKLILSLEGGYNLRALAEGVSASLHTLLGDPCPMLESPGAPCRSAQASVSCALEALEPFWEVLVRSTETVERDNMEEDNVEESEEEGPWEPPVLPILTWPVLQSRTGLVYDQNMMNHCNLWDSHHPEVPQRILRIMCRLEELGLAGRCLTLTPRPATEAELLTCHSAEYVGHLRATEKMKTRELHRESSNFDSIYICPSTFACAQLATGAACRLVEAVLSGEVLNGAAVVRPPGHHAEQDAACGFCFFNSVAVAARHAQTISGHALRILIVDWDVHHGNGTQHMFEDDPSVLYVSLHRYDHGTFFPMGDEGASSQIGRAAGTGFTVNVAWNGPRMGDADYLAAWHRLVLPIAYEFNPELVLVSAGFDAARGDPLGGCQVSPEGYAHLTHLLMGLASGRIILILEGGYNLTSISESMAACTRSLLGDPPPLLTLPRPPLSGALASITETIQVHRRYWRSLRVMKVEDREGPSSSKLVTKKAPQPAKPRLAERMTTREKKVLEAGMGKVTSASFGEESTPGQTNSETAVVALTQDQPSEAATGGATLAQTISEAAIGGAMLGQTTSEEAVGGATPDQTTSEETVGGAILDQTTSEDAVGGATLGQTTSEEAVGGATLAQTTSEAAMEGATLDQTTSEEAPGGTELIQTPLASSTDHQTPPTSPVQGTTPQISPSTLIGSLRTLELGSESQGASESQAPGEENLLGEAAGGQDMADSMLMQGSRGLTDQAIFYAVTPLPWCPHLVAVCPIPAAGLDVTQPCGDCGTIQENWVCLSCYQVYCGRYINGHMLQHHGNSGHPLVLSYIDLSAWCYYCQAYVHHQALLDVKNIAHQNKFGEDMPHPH
In words: ELISA-based HDAC activity assay, HDAC6.

Assay [4] has as its target HDAC2 (Homo sapiens, UniProt Q92769). Description: ELISA-based HDAC activity assay, HDAC2.
The target in assay [5] is T2, HDAC8 (Homo sapiens, UniProt Q9BY41).
T2 sequence (Q9BY41 1-377): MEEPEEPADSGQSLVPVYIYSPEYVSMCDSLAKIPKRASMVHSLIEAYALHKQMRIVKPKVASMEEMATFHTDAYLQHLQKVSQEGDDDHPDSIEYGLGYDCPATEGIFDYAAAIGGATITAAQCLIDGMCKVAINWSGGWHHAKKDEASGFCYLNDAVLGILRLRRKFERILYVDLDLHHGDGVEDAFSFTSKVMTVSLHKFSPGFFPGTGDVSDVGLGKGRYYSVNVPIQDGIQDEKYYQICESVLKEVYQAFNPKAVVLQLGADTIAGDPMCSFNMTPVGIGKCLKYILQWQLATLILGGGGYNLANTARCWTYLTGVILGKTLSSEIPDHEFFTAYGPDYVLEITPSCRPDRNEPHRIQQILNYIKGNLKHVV
Description: Recombinant HDAC8 inhibition (HDAC-Glo). The arrangement: purchased BPS Bioscience. It counts as biochemical.

For `CCCCC(CCCC(=O)Nc1ccccc1)CCC(=O)NO` (racemic) [Compound 1c, 4-butyl-N^1-hydroxy-N^8-phenyloctanediamide], the IC50 (as a rule, the midpoint of a concentration-inhibition curve) in assay [1] was 23 µM; in assay [2] it was 15 µM; in assay [3], 0.088 ± 0.007 µM; in assay [4], 18 µM; in assay [5], 74 ± 2 nM.
